Like-named read-outs stand apart in the source and are kept apart here.
How the values were obtained:
Rac1 = Rac1 (Homo sapiens (Human), UniProt P63000); test: Rac Activation AlphaScreen Assay (RacI AS)
[1] = Mouse Liver Microsome (MLM) Stability Assay
Method: 5. Mouse Liver Microsome (MLM) Stability Assay
Incubation of test compounds with mouse liver microsomes in the presence of NADPH co-factor was used to assay the in vitro mouse liver microsome metabolic clearance rate. In the presence of the co-factor NADPH, which initiates the reaction, mouse liver microsomes were incubated with test compounds at 37° C. at fixed time intervals. After centrifugation, supernatants were measured by LC/M S. The amount of compound at each time interval was compared to the amount of compound present at the 0 minute timepoint and percentage compound remaining values were calculated. MLM intrinsic clearance (Clint) (μL/min/mg protein) is calculated based on compound half-life.

[2] = read-out: Activity, Table 1, Formula I-A
[3] = Table 3, other compounds of Formula I

Structure (SMILES) | IC50 (Rac1; [2]) [nM] | MLM clearance [1] | other results
Cc1ccc(-c2nnc3ccc(-c4cccc(NC(=O)c5ccc(C)c(-c6cnco6)c5)c4)nn23)o1 | < 1000 | – | –
Cc1ccc(-c2nnc3ccc(-c4cccc(NC(=O)c5ccc(F)c(SC(C)C)c5)c4)nn23)o1 | < 1000 | – | –
Cc1ccc(-c2nnc3ccc(-c4cccc(NC(=O)c5cccc(SC(C)(C)C)c5)c4)nn23)o1 | < 1000 | – | –
Cc1ccc(-c2nnc3ccc(-c4cccc(NC(=O)c5ccc(F)c(CCC(C)C)c5)c4)nn23)o1 | < 1000 | below 50 μL/min/mg protein | –
Cc1ccc(-c2nnc3ccc(-c4cccc(NC(=O)c5cccc(Br)c5)c4)nn23)o1 | < 1000 | below 50 μL/min/mg protein | –
COc1cc(C(=O)Nc2cccc(-c3ccc4nnc(-c5ccc(CO)o5)n4n3)c2)ccc1F | – | – | IC50 (Rac1; [3]): < 1000 nM
O=C(Nc1cccc(-c2ccc3nnc(-c4cncs4)n3n2)c1)c1ccc(F)c(Cl)c1 | – | – | IC50 (Rac1; Table 2, Formula I-B): 1000 to 10000 nM
CSc1cc(C(=O)Nc2cccc(-c3ccc4nnc(-c5ccc(C)o5)n4n3)c2)ccc1F | < 1000 | – | –
O=C(Nc1cccc(-c2ccc3nnc(-c4cncs4)n3n2)c1)c1cccc(Cl)c1 | – | – | IC50 (Rac1; Table 2, Formula I-B): 1000 to 10000 nM
Cc1ccc(-c2nnc3ccc(-c4cccc(NC(=O)c5ccc(F)c(C)c5)c4)nn23)o1 | < 1000 | below 50 μL/min/mg protein | –
CCSc1cccc(C(=O)Nc2cccc(-c3ccc4nnc(-c5ccc(C)o5)n4n3)c2)c1 | < 1000 | – | –
Cc1cccc(C(=O)Nc2cccc(-c3ccc4nnc(-c5ccc(C)o5)n4n3)c2)c1 | < 1000 | below 50 μL/min/mg protein | –
Cc1ccc(-c2nnc3ccc(-c4cccc(NC(=O)c5ccc(F)c(Br)c5)c4)nn23)o1 | < 1000 | below 50 μL/min/mg protein | –
O=Cc1ccc(-c2nnc3ccc(-c4cccc(NC(=O)c5ccc(F)cc5)c4)nn23)o1 | – | – | IC50 (Rac1; [3]): < 1000 nM

From patent US20250346604A1, “TRIAZOLOPYRIDAZINE COMPOUNDS USEFUL AS RAC1 INHIBITORS” (Revere Pharmaceuticals, priority 2022, published 2025)
